# Results as given in patent publication US6177441A, “Treating red blood cell solutions with anti-viral agents” (Cerus Corporation, priority 1998, dated 2001).
# Columns and labels:
# [1] = test system: R17; test: R17 inactivation by QM after pre-incubation in Adsol, red blood cells or with Amberlite XAD-16 (Example 5); settings: for Log Titer: QM-RBC
# [2] = test system: red blood cells; test: 2,3-DPG of QM treated packed red blood cells on storage (Example 11)
# [3] = test system: R17; test: R17 inactivation by QM as a function of hematocrit (Example 2); settings: for Log Titer: QM 1.0 μg/ml
# [4] = test system: R17; test: R17 phage inactivation by QM in Adsol or DMSO, red blood cells (Example 1); settings: for Log Titer: 30% Htc
# [5] = test system: R17; test: Loss of QM anti-viral activity on pre-incubation in Adsol; light controls (Example 4); settings: for Log Titer: dark
# [6] = test system: red blood cells; settings: 80 μg/ml, low dose biotin label; untreated 96.2
# [7] = test system: red blood cells; settings: 80 μg/ml
# [8] = test system: red blood cells; test: IgG binding to treated red blood cells, FACScan (Example 10); settings: control 3.43
# [9] = test system: red blood cells; test: IgG binding to QM treated packed red blood cells on storage (Example 11)
# [10] = test system: red blood cells; test: Extracellular potassium of treated red blood cells (Example 10); assay type: cell-based
# [11] = test system: red blood cells; test: Potassium levels of QM treated packed red blood cells on storage (Example 11)
# [12] = test system: R17; test: Kinetics of R17 inactivation by QM with NAC quench (Example 3)
# [13] = test system: R17; test: R17 inactivation in red blood cells, QM vs chlorambucil (Example 10); assay type: cell-based, bacteriophage R17; settings: QM all concentrations; chlorambucil up to 300 μg/ml
# [14] = Solubility observations of stock solutions
# [15] = test system: red blood cells; test: ATP of QM treated packed red blood cells on storage (Example 11)
# [16] = under conditions of effective R17 inactivation
smiles,measurement,setting,value
COc1ccc2nc3cc(Cl)ccc3c(NC(C)CCCN(CCCl)CCCl)c2c1.Cl.Cl (stereo not shown),time of removal of QM from blood by Amberlite XAD-16,[1],≤ 1 h
same,QM anti-viral activity after pre-incubation with red blood cells,[1]; 4 hour pre-incubation,removed
same,Log Titer,[1]; 30 min,5.0
same,Log Titer,[1]; 120 min,8.0
same,"2,3-DPG","[2]; 2.5 μg/ml QM, day 1",2.20
same,"2,3-DPG","[2]; 2.5 μg/ml QM, day 9",0.88
same,"2,3-DPG","[2]; 2.5 μg/ml QM, day 16",0.10
same,"2,3-DPG","[2]; 5 μg/ml QM, day 1",2.35
same,"2,3-DPG","[2]; 5 μg/ml QM, day 9",0.97
same,"2,3-DPG","[2]; 5 μg/ml QM, day 16",0.28
same,"2,3-DPG","[2]; 10 μg/ml QM, day 1",2.06
same,"2,3-DPG","[2]; 10 μg/ml QM, day 9",1.11
same,"2,3-DPG","[2]; 10 μg/ml QM, day 16",0.34
same,"2,3-DPG","[2]; 20 μg/ml QM, day 1",2.63
same,"2,3-DPG","[2]; 20 μg/ml QM, day 9",1.43
same,"2,3-DPG","[2]; 20 μg/ml QM, day 16",1.36
same,"2,3-DPG","[2]; 40 μg/ml QM, day 1",2.09
same,"2,3-DPG","[2]; 40 μg/ml QM, day 9",1.04
same,"2,3-DPG","[2]; 40 μg/ml QM, day 16",0.11
same,"effect on 2,3-DPG content",[2]; [16],no significant effects
same,R17 inactivation,"[3]; 1.0 μg/ml, Htc 0-30%",inactivates R17 in all of the Htc tested
same,Log Titer,"[3]; Htc 0%, control 8.8",2.0
same,Log Titer,[3]; Htc 1%,4.0
same,Log Titer,"[4]; QM 10 μg/ml, solvent Adsol",1.0
same,Log Titer,"[4]; QM 20 μg/ml, solvent DMSO",1.0
same,R17 inactivation,"[4]; above 10 μg/ml, to the limit of detection of assay",complete inactivation is achieved
same,R17 inactivation,[4]; concentrations as low as 2.5 μg/ml,effective in inactivating R17
same,light-dependent kill of R17,[5],no light-dependent kill
same,QM activity after pre-incubation in Adsol,[5]; 4 hour pre-incubation,not diminished
same,Log Titer,[5]; QM 1 hour pre-incubation,4.0
same,Log Titer,[5]; QM 4 hour pre-incubation,4.0
same,QM anti-viral activity upon pre-incubation in Adsol,"[5]; previous results, not shown",did not decrease rapidly
same,"% RECOVERY, LOW",[6],94.6%
same,LOSS PER DAY,[7]; untreated 2.66%,2.77%
same,RECOVERY,[7]; untreated 90.3 ± 3.2,80.8 ± 4.7
same,Median Fluorescence (IgG binding),[8]; 10 μg/ml,5.00
same,Median Fluorescence (IgG binding),[8]; 30 μg/ml,7.77
same,Median Fluorescence (IgG binding),[8]; 100 μg/ml,15.8
same,Median Fluorescence (IgG binding),[8]; 300 μg/ml,48.7
same,mean FL,"[9]; 2.5 μg/ml QM, day 1",4.77
same,median FL,"[9]; 2.5 μg/ml QM, day 1",4.45
same,mean FL,"[9]; 2.5 μg/ml QM, day 9",4.77
same,median FL,"[9]; 2.5 μg/ml QM, day 9",4.45
same,mean FL,"[9]; 2.5 μg/ml QM, day 16",4.77
same,median FL,"[9]; 2.5 μg/ml QM, day 16",4.45
same,mean FL,"[9]; 5 μg/ml QM, day 1",4.79
same,median FL,"[9]; 5 μg/ml QM, day 1",4.45
same,mean FL,"[9]; 5 μg/ml QM, day 9",4.79
same,median FL,"[9]; 5 μg/ml QM, day 9",4.45
same,mean FL,"[9]; 5 μg/ml QM, day 16",4.79
same,median FL,"[9]; 5 μg/ml QM, day 16",4.45
same,mean FL,"[9]; 10 μg/ml QM, day 1",4.96
same,median FL,"[9]; 10 μg/ml QM, day 1",4.7
same,mean FL,"[9]; 10 μg/ml QM, day 9",4.96
same,median FL,"[9]; 10 μg/ml QM, day 9",4.7
same,mean FL,"[9]; 10 μg/ml QM, day 16",4.96
same,median FL,"[9]; 10 μg/ml QM, day 16",4.7
same,mean FL,"[9]; 20 μg/ml QM, day 1",5.73
same,median FL,"[9]; 20 μg/ml QM, day 1",5.19
same,mean FL,"[9]; 20 μg/ml QM, day 9",5.73
same,median FL,"[9]; 20 μg/ml QM, day 9",5.19
same,mean FL,"[9]; 20 μg/ml QM, day 16",5.73
same,median FL,"[9]; 20 μg/ml QM, day 16",5.19
same,mean FL,"[9]; 40 μg/ml QM, day 1",6.31
same,median FL,"[9]; 40 μg/ml QM, day 1",6.04
same,mean FL,"[9]; 40 μg/ml QM, day 9",6.31
same,median FL,"[9]; 40 μg/ml QM, day 9",6.04
same,mean FL,"[9]; 40 μg/ml QM, day 16",6.31
same,median FL,"[9]; 40 μg/ml QM, day 16",6.04
same,effect on IgG binding to RBCs,[9]; [16],only modest effects on IgG binding to RBCs
same,Extracellular Potassium,"[10]; 10 μg/ml, day 0",0.73 mM
same,Extracellular Potassium,"[10]; 10 μg/ml, day 1",1.65 mM
same,Extracellular Potassium,"[10]; 10 μg/ml, day 2",2.76 mM
same,Extracellular Potassium,"[10]; 10 μg/ml, day 3",3.64 mM
same,Extracellular Potassium,"[10]; 10 μg/ml, day 4",4.26 mM
same,Extracellular Potassium,"[10]; 10 μg/ml, day 6",5.30 mM
same,Extracellular Potassium,"[10]; 10 μg/ml, day 7",5.69 mM
same,Extracellular Potassium,"[10]; 30 μg/ml, day 0",0.76 mM
same,Extracellular Potassium,"[10]; 30 μg/ml, day 1",1.94 mM
same,Extracellular Potassium,"[10]; 30 μg/ml, day 2",3.08 mM
same,Extracellular Potassium,"[10]; 30 μg/ml, day 3",4.00 mM
same,Extracellular Potassium,"[10]; 30 μg/ml, day 4",4.63 mM
same,Extracellular Potassium,"[10]; 30 μg/ml, day 6",5.76 mM
same,Extracellular Potassium,"[10]; 30 μg/ml, day 7",6.15 mM
same,Extracellular Potassium,"[10]; 100 μg/ml, day 0",0.78 mM
same,Extracellular Potassium,"[10]; 100 μg/ml, day 1",2.48 mM
same,Extracellular Potassium,"[10]; 100 μg/ml, day 2",4.05 mM
same,Extracellular Potassium,"[10]; 100 μg/ml, day 3",5.23 mM
same,Extracellular Potassium,"[10]; 100 μg/ml, day 4",6.06 mM
same,Extracellular Potassium,"[10]; 100 μg/ml, day 6",7.50 mM
same,Extracellular Potassium,"[10]; 100 μg/ml, day 7",8.02 mM
same,Extracellular Potassium,"[10]; 300 μg/ml, day 0",0.82 mM
same,Extracellular Potassium,"[10]; 300 μg/ml, day 1",3.61 mM
same,Extracellular Potassium,"[10]; 300 μg/ml, day 2",5.59 mM
same,Extracellular Potassium,"[10]; 300 μg/ml, day 3",7.37 mM
same,Extracellular Potassium,"[10]; 300 μg/ml, day 4",8.32 mM
same,Extracellular Potassium,"[10]; 300 μg/ml, day 6",> 10 mM
same,Extracellular Potassium,"[10]; 300 μg/ml, day 7",11.20 mM
same,changes in red blood cell function,"[10]; potassium leakage and IgG binding, conditions of Example 10",only induced slight changes in red blood cell function
same,K^+,"[11]; 2.5 μg/ml QM, day 1",7.42
same,K^+,"[11]; 2.5 μg/ml QM, day 2",7.42
same,K^+,"[11]; 2.5 μg/ml QM, day 7",12.90
same,K^+,"[11]; 2.5 μg/ml QM, day 8",13.64
same,K^+,"[11]; 2.5 μg/ml QM, day 9",15.86
same,K^+,"[11]; 2.5 μg/ml QM, day 16",31.76
same,K^+,"[11]; 5 μg/ml QM, day 1",7.24
same,K^+,"[11]; 5 μg/ml QM, day 2",7.24
same,K^+,"[11]; 5 μg/ml QM, day 7",13.28
same,K^+,"[11]; 5 μg/ml QM, day 8",14.82
same,K^+,"[11]; 5 μg/ml QM, day 9",15.18
same,K^+,"[11]; 5 μg/ml QM, day 16",32.96
same,K^+,"[11]; 10 μg/ml QM, day 1",7.24
same,K^+,"[11]; 10 μg/ml QM, day 2",7.24
same,K^+,"[11]; 10 μg/ml QM, day 7",13.06
same,K^+,"[11]; 10 μg/ml QM, day 8",15.16
same,K^+,"[11]; 10 μg/ml QM, day 9",14.68
same,K^+,"[11]; 10 μg/ml QM, day 16",31.64
same,K^+,"[11]; 20 μg/ml QM, day 1",7.00
same,K^+,"[11]; 20 μg/ml QM, day 2",7.00
same,K^+,"[11]; 20 μg/ml QM, day 7",12.90
same,K^+,"[11]; 20 μg/ml QM, day 8",15.38
same,K^+,"[11]; 20 μg/ml QM, day 9",14.44
same,K^+,"[11]; 20 μg/ml QM, day 16",31.36
same,K^+,"[11]; 40 μg/ml QM, day 1",6.95
same,K^+,"[11]; 40 μg/ml QM, day 2",6.95
same,K^+,"[11]; 40 μg/ml QM, day 7",12.88
same,K^+,"[11]; 40 μg/ml QM, day 8",12.44
same,K^+,"[11]; 40 μg/ml QM, day 9",15.44
same,K^+,"[11]; 40 μg/ml QM, day 16",30.92
same,effect on potassium-leakage,[11]; [16],no significant effects
same,time to complete R17 inactivation,[12],≤ 2 h
same,R17 inactivation,[13],completely inactivated
same,solubility observation,[14]; 0.4 mg/ml in Adsol,"suspension, not a solution"
same,solubility observation,[14]; 0.6 mg/ml in DMEM/15% FBS,colloidal suspension rather than a solution
same,solubility observation,[14]; 1.0 mg/ml in 50% Htc red blood cells,contained definite particles
same,solubility observation,[14]; 1.0 mg/ml stock mixed 20 μl + 180 μl packed red blood cells,appeared clear
same,solubility observation,[14]; 2.0 mg/ml in ice cold Adsol,suspension
same,solubility observation,[14]; 2 mg/ml in saline,almost completely dissolved
same,solubility observation,[14]; 2.9 mg in 0.967 ml Adsol,material remained in suspension
same,solubility observation,"[14]; 3 mg/ml stock, 0.3 mg/ml in 50% Htc red blood cells",evidence of precipitating out of solution
same,solubility observation,"[14]; 2.5, 5.0, 10, or 20 μg/ml in R17-Adsol samples",completely solubilized
same,ATP,"[15]; 2.5 μg/ml QM, day 1",0.78 mM
same,ATP,"[15]; 2.5 μg/ml QM, day 9",0.80 mM
same,ATP,"[15]; 2.5 μg/ml QM, day 16",0.74 mM
same,ATP,"[15]; 5 μg/ml QM, day 1",0.78 mM
same,ATP,"[15]; 5 μg/ml QM, day 9",0.81 mM
same,ATP,"[15]; 5 μg/ml QM, day 16",0.73 mM
same,ATP,"[15]; 10 μg/ml QM, day 1",0.76 mM
same,ATP,"[15]; 10 μg/ml QM, day 9",0.81 mM
same,ATP,"[15]; 10 μg/ml QM, day 16",0.73 mM
same,ATP,"[15]; 20 μg/ml QM, day 1",0.78 mM
same,ATP,"[15]; 20 μg/ml QM, day 9",0.80 mM
same,ATP,"[15]; 20 μg/ml QM, day 16",0.73 mM
same,ATP,"[15]; 40 μg/ml QM, day 1",0.76 mM
same,ATP,"[15]; 40 μg/ml QM, day 9",0.80 mM
same,ATP,"[15]; 40 μg/ml QM, day 16",0.72 mM
same,effect on ATP content,[15]; [16],no significant effects
